# The entries are a selection whose mix differs from that of the whole data set. Results filed as inconclusive are left out. Active and inactive are the calls of the source. Calls follow the shape of the dose curve; as a rule, active = well fitted inhibition curve with a large enough effect; inconclusive = small, poorly fitted or top-dose-only effect; inactive = flat fitted curve, though single readings scatter.
# The chains behind the UniProt entries cited, without tags or fusion partners. Where a name states a change or a piece, a line headed by the entry shows the natural chain unless it says otherwise.
# UniProt Q8IUX4: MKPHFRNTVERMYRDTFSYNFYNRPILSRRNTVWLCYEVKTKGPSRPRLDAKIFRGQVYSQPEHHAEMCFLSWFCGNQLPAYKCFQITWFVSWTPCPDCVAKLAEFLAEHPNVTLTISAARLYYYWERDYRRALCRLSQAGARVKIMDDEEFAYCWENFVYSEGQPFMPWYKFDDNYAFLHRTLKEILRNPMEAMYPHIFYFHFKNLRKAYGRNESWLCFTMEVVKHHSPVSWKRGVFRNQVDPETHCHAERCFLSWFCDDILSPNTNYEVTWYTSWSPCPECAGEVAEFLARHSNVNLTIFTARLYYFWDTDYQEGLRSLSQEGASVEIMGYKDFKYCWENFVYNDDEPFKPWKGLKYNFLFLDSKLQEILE
# Target: DNA dC->dU-editing enzyme APOBEC-3F (Homo sapiens) (UniProt Q8IUX4)
# Test: qHTS for inhibitors of Vif-A3F interactions: Cherry picks; also: nearly all actives have a fitted effect of over 70% in size
# Conditions: HeLa A3F-eYFP + Vif (tagged APOBEC3F with the HIV-1 protein that degrades it), eYFP fluorescence, 24 h
# Excerpt: The recent discovery and characterization of host restriction factors, which provide a potent defense to invading retroviruses, has provided new targets for antiviral drug development. APOBEC3G (A3G) and APOBEC3F (A3F) are potent cytidine deaminases that block HIV-1 replication; HIV-1 expresses the Vif protein, which counteracts A3G and A3F by binding to them and inducing their proteasomal degradation. The Vif-A3G and Vif-A3F interactions provide two potential targets for development of small molecules which can interfere with the ability of Vif to degrade A3G or A3F. […] To identify inhibitors that can interfere with Vif mediated degradation of A3G and A3F, we have developed Hela cell lines that stably express A3G or A3F tagged with eYFP at the C-terminal end (A3G-eYFP or A3F-eYFP, respectively) and Vif. In the absence of an inhibitor, Vif induces degradation of A3G-eYFP and A3F-eYFP, and the cells are not fluorescent. In the presence of an inhibitor, it is expected that Vif will be unable to degrade A3G-eYFP and/or A3F-eYFP, resulting in an increase in yellow fluorescence. […]
# A3F-Vif cells were harvested from T225 flask and resuspended in phenol free OPTI-MEM medium with 5% FBS. […] After that, the plates were measured on Acumen Explorer (TTP Lab Tech). The fluorescence was detected by 488 nm/Ex and […].
# Potency is read from the fitted curve at half-maximal effect.
row,Compound,Potency
1,CC[n+]1c(/C=C/N(C)c2ccccc2)oc2ccccc21,active: 7.31 µM

# — PubChem BioAssay AID651814 (National Center for Advancing Translational Sciences (NCATS), 2012)
